Here are results for two compounds from patent US9445606B2, “Use of 4-hydroxydihydrochalcones and their salts for enhancing an impression of sweetness” (SYMRISE AG, priority 2006, dated 2016).

The structures appear in SMILES notation.

Test [1] can be described thus: Impression of sweetness of a sugar-reduced test solution (5% sucrose + compound against 6% sucrose). The format is in vivo. From the text: In order to quantify the retention of an impression of sweetness when replacing a proportion of sucrose with a small amount of 4-hydroxydihydrochalcones of the formula (I) being used in accordance with the invention, the sweetness (a) of a solution containing 6 wt. % of sucrose as compared with a solution containing 5 wt. % of sucrose and (b) or (c) of a solution containing 6 wt. % of sucrose as compared with a solution containing 5% of sucrose and a certain concentration of a 4-hydroxydihydrochalcone being used according to the invention was determined by a group of experts (classification 0 [not sweet] to 10 [extremely sweet]). Evaluation was performed by calculating the enhancement (in %) of the impression of sweetness from the average values of the estimates for the solutions of 6% sucrose (second column) and for the solutions containing 5% sucrose and optionally the 4-hydroxydihydrochalcone of the formula (I) being used according to the invention (third column).

The nature of test [2]: Enhancing the impression of sweetness of a solution containing a sweet-tasting substance (expert panel rating), sucrose. The format is in vivo. The note with it: 100 ppm substance, 5%; for % enhancement of the impression of sweetness: (b) with against (a) without; for Impression of sweetness (1-10) b) with: mean ± standard deviation. On the procedure:
In order to quantify the enhancement of an impression of sweetness by adding 4-hydroxydihydrochalcones to be used according to the invention, the sweetness of a solution containing a sweet-tasting substance and of samples containing the same amount of sweet-tasting substance and in addition a certain concentration of the 4-hydroxydihydrochalcones of the formula (I) to be used according to the invention was determined by a group of experts (classification 0 [extremely weaklysweet] to 10 [extremely sweet]). Evaluation was performed by calculating the enhancement (in %) of the impression of sweetness from the average values of the ratings for the solution containing the sweet-tasting substance (a) and for the solution containing the sweet-tasting substance and 4-dydroxydihydrochalcones (b).

Take `COc1cc(CCC(=O)c2c(O)cc(O)cc2O)ccc1O` [compound 8, 3-(4-hydroxy-3-methoxyphenyl)-1-(2,4,6-trihydroxyphenyl)propan-1-one]: the “total number of tasters / number of tasters who felt the 5 wt. % sucrose test solution with substance sweeter than 6 wt. % sucrose” value in test [1] (5% sucrose + 100 ppm substance) is on record as 15/4. Also, in test [1] (5% sucrose + 100 ppm substance against 6% sucrose), the “% enhancement of the impression of sweetness” value (“% enhancement” below) was −11%. Further, the “Impression of sweetness (1-10)” value in test [1] (5% sucrose + 100 ppm substance, mean ± standard deviation) turned out to be 4.9 ± 1.3. Also, in test [2], the “total number of tasters / number of tasters who felt that test solution (b) was sweeter than test solution (a)” value is 15/12, the “% enhancement” value was “+23%” and the “Impression of sweetness (1-10) b) with” value was 6.5 ± 1.4.

In the case of `COc1cc(CCC(=O)c2ccccc2O)ccc1O` [compound 5, 3-(4-hydroxy-3-methoxyphenyl)-1-(2-hydroxyphenyl)propan-1-one], in test [2], the “total number of tasters / number of tasters who felt that test solution (b) was sweeter than test solution (a)” value was 16/13, the “% enhancement” value is recorded as “+24%” and the “Impression of sweetness (1-10) b) with” value is 6.2 ± 1.7.
